{
  "sequences": {"note": "Protein sequences, listed by entry. Tags and fused reporters are not part of them. Residues count along the entry.", "UniProt O14672, 214-748 limits assumed": "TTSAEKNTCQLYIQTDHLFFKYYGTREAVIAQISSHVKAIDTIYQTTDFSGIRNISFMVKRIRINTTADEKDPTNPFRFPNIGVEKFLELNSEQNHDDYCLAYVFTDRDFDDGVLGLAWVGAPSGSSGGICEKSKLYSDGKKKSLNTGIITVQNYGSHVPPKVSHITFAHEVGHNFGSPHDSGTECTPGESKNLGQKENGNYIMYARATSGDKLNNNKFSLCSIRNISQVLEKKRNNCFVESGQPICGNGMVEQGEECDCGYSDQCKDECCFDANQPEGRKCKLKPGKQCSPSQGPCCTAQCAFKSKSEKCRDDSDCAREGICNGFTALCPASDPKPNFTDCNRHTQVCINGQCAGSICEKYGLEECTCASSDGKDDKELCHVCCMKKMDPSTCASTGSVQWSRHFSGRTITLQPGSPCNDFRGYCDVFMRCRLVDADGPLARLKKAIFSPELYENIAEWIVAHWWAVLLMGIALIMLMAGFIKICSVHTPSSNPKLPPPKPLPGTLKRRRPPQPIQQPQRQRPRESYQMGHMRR"},
  "source": "PubChem BioAssay AID720582",
  "about": "(The Scripps Research Institute Molecular Screening Center, 2013)",
  "note": "The entries are a selection whose mix differs from that of the whole data set. Activity calls are given as the source filed them.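 The calls were made as follows: active = inhibition above a per-campaign cutoff equal to the mean of compounds falling between control-based bounds plus 3 SD (cut at about 20% in these data); inactive = the rest.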",
  "data": [
    {"target": "Disintegrin and metalloproteinase domain-containing protein 10 (Homo sapiens) (UniProt O14672)", "test": "blockers of ADAM10 peptide cleavage – biochemical, QFRET, HTS, primary screen (AID 720582);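 also: 0% = DMSO wells while the 100% control is not disclosed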", "conditions": "recombinant ADAM10, EDANS/DABCYL FRET peptide cleavage, 3 h; at 7 µM; hits give high values", "values": [
      {"smiles": "O=C(NCC1(N2CCCCC2)CCCCC1)c1cccc(C(F)(F)F)c1", "inhibition": "inactive: -3.29%"},
      {"smiles": "O=C(NCC1(N2CCOCC2)CCCCC1)c1cc(=O)[nH]c2ccccc12", "inhibition": "inactive: -7.43%"},
      {"smiles": "COc1cc(C(=O)NCC2(N3CCCCC3)CCCCC2)ccc1OC(F)F", "inhibition": "inactive: -7.14%"},
      {"smiles": "COc1ccc(NC2CCN(C(=O)OC(C)(C)C)CC2)cc1", "inhibition": "inactive: -0.9%"},
      {"smiles": "CC(C)c1ccc(C(=O)NCC2(N3CCOCC3)CCCCC2)cc1", "inhibition": "inactive: 2.04%"},
      {"smiles": "CN1CCN(CCOC(=O)C(O)(c2ccccc2)c2ccccc2)CC1", "inhibition": "inactive: -3.83%"},
      {"smiles": "CCCCn1nnnc1C(c1cccc2ccccc12)N1CCC(n2c(=O)[nH]c3ccccc32)CC1", "note": "(stereo not given)", "inhibition": "active: 21.9%"},
      {"smiles": "CC(C)(C)n1nnnc1C(c1ccccc1OC(F)(F)F)N1CCC(n2c(=O)[nH]c3ccccc32)CC1", "note": "(stereo not given)", "inhibition": "inactive: 2.32%"},
      {"smiles": "O=C(NCC1(N2CCCCC2)CCCCC1)c1ccc(OC(F)F)cc1", "inhibition": "inactive: -10.7%"},
      {"smiles": "CCN1CCC(Nc2ccc(Cl)cc2)CC1", "inhibition": "inactive: -4.37%"},
      {"smiles": "O=c1[nH]c2ccccc2n1C1CCN(C(c2ccccc2OC(F)(F)F)c2nnnn2C2CCCC2)CC1", "note": "(stereo not given)", "inhibition": "inactive: -0.98%"},
      {"smiles": "N#CC1(Nc2ccccc2)CCN(CCc2ccccc2)CC1", "inhibition": "inactive: -5.46%"},
      {"smiles": "O=C(NCC1(N2CCCCC2)CCCCC1)c1cccc([N+](=O)[O-])c1", "inhibition": "inactive: -1.72%"},
      {"smiles": "CSc1ccc(C(=O)NCC2(N3CCOCC3)CCCCC2)cc1", "inhibition": "inactive: 13.6%"},
      {"smiles": "CN1CCC(Nc2cccc(F)c2)CC1", "inhibition": "inactive: 3.63%"},
      {"smiles": "O=C(NCC1(N2CCCCC2)CCCCC1)c1cncc(Br)c1", "inhibition": "inactive: -3.42%"},
      {"smiles": "COc1ccc(C(c2nnnn2C2CCCC2)N2CCC(n3c(=O)[nH]c4ccccc43)CC2)cc1", "note": "(stereo not given)", "inhibition": "inactive: 1.34%"},
      {"smiles": "Cc1ccc(C(=O)NCC2(N(C)C)CCCCC2)o1", "inhibition": "inactive: -1.07%"},
      {"smiles": "CCCOc1ccc(C(=O)NCC2(N(C)C)CCCCC2)cc1OC", "inhibition": "inactive: 2.67%"},
      {"smiles": "CC(C)c1ccc(NC2CCN(C(=O)OC(C)(C)C)CC2)cc1", "inhibition": "inactive: 0.94%"},
      {"smiles": "COc1ccc(CN(CCCl)CCCl)cc1Cl", "inhibition": "inactive: -17.1%"},
      {"smiles": "COC(=O)C1(Nc2ccccc2)CCN(Cc2ccccc2)CC1", "inhibition": "inactive: 1.9%"},
      {"smiles": "CN(C)c1cccc(C(=O)NCC2(N3CCCCC3)CCCCC2)c1", "inhibition": "inactive: -33.8%"},
      {"smiles": "COc1cc(OC)c(C(=O)NCC2(N(C)C)CCCCC2)cc1OC", "inhibition": "inactive: -12.5%"},
      {"smiles": "CCC(c1nnnn1C(C)(C)C)N1CCC(n2c(=O)[nH]c3ccccc32)CC1", "note": "(stereo not given)", "inhibition": "inactive: -2.2%"},
      {"smiles": "O=C(NCC1(N2CCOCC2)CCCCC1)c1cc(F)c(F)cc1Cl", "inhibition": "inactive: -14.3%"},
      {"smiles": "CCCCn1nnnc1C(c1ccnc2ccccc12)N1CCC(n2c(=O)[nH]c3ccccc32)CC1", "note": "(stereo not given)", "inhibition": "inactive: 13.8%"},
      {"smiles": "O=C(NCC1(N2CCCCC2)CCCCC1)c1ccc(Cl)nc1", "inhibition": "inactive: -19%"},
      {"smiles": "O=c1[nH]c2ccccc2n1C1CCN(C(c2ccccc2OC(F)(F)F)c2nnnn2C2CCCCC2)CC1", "note": "(stereo not given)", "inhibition": "inactive: 1.34%"},
      {"smiles": "Cc1cc(C)cc(N(C(=O)c2ccccc2)C2CCN(C(=O)OC(C)(C)C)CC2)c1", "inhibition": "inactive: 5.86%"},
      {"smiles": "O=C(NCC1(N2CCOCC2)CCCCC1)c1cc2ccccc2o1", "inhibition": "inactive: -2.7%"},
      {"smiles": "O=C(NCC1(N2CCCCC2)CCCCC1)c1ccc(Cl)s1", "inhibition": "inactive: -14.8%"},
      {"smiles": "N#CC1(Nc2ccccc2)CCN(Cc2ccccc2)CC1", "inhibition": "inactive: -0.56%"},
      {"smiles": "O=c1[nH]c2ccccc2n1C1CCN(C(c2cc3ccccc3o2)c2nnnn2C2CCCCC2)CC1", "note": "(stereo not given)", "inhibition": "inactive: -6.93%"},
      {"smiles": "O=C(OC1CN2CCC1CC2)C1c2ccccc2Oc2ccccc21", "note": "(stereo not given)", "inhibition": "inactive: -0.4%"},
      {"smiles": "COc1ccc(Cl)cc1C(=O)NCC1(N2CCOCC2)CCCCC1", "inhibition": "inactive: 6.05%"},
      {"smiles": "CCOC(=O)N1CCC(Nc2ccc(OC)cc2)CC1", "inhibition": "inactive: -0.9%"},
      {"smiles": "CCCCn1nnnc1C(c1ccc(OC)cc1)N1CCC(n2c(=O)[nH]c3ccccc32)CC1", "note": "(stereo not given)", "inhibition": "inactive: -6.5%"},
      {"smiles": "COc1ccc(C(=O)NCC2(N3CCCCC3)CCCCC2)cc1", "inhibition": "inactive: 0.31%"},
      {"smiles": "COc1ccc(C(=O)NCC2(N3CCCCC3)CCCCC2)c(OC)c1OC", "inhibition": "inactive: -2.85%"},
      {"smiles": "CC(C)(C)OC(=O)N1CCC(N(C(=O)c2ccccc2)c2ccc(F)cc2)CC1", "inhibition": "inactive: -0.75%"},
      {"smiles": "CCC(c1nnnn1C1CCCC1)N1CCC(n2c(=O)[nH]c3ccccc32)CC1", "note": "(stereo not given)", "inhibition": "inactive: -10.3%"},
      {"smiles": "O=C(NCC1(N2CCCCC2)CCCCC1)c1ccc(=O)[nH]c1", "inhibition": "inactive: -0.85%"},
      {"smiles": "CCCCn1nnnc1C(CC)N1CCC(n2c(=O)[nH]c3ccccc32)CC1", "note": "(stereo not given)", "inhibition": "inactive: -6.55%"},
      {"smiles": "O=C(NCC1(N2CCCCC2)CCCCC1)c1cccs1", "inhibition": "inactive: -6.02%"},
      {"smiles": "CCCCn1nnnc1C(c1cccs1)N1CCC(n2c(=O)[nH]c3ccccc32)CC1", "note": "(stereo not given)", "inhibition": "inactive: -5.22%"},
      {"smiles": "CSc1ccccc1C(=O)NCC1(N2CCCCC2)CCCCC1", "inhibition": "inactive: -13%"},
      {"smiles": "Cc1cccc(NC2(C#N)CCN(Cc3ccccc3)CC2)c1", "inhibition": "inactive: -11.8%"},
      {"smiles": "O=c1[nH]c2ccccc2n1C1CCN(C(c2ccccc2)c2nnnn2C2CCCCC2)CC1", "note": "(stereo not given)", "inhibition": "inactive: 0.28%"},
      {"smiles": "CCOC(=O)N1CCC(Nc2cccc(C)c2)CC1", "inhibition": "inactive: -4.92%"},
      {"smiles": "COc1cc(C(=O)NCC2(N(C)C)CCCCC2)ccc1OC(F)F", "inhibition": "inactive: -9.91%"},
      {"smiles": "O=c1[nH]c2ccccc2n1C1CCN(C(c2cccc3ccccc23)c2nnnn2C2CCCC2)CC1", "note": "(stereo not given)", "inhibition": "inactive: -0.58%"},
      {"smiles": "CC(C)(C)n1nnnc1C(c1ccccc1)N1CCC(n2c(=O)[nH]c3ccccc32)CC1", "note": "(stereo not given)", "inhibition": "inactive: 1.14%"},
      {"smiles": "O=C1CCN(Cc2ccccc2)CC1", "inhibition": "inactive: -21.1%"},
      {"smiles": "CCOc1ccc(C)cc1CN(CCCl)CCCl", "inhibition": "inactive: 5.11%"},
      {"smiles": "CCCCOc1ccc(C(=O)NCC2(N3CCOCC3)CCCCC2)cc1", "inhibition": "inactive: -2.34%"},
      {"smiles": "CCCCn1nnnc1C(c1cc2ccccc2o1)N1CCC(n2c(=O)[nH]c3ccccc32)CC1", "note": "(stereo not given)", "inhibition": "inactive: -0.96%"},
      {"smiles": "O=P1(N(CCCl)CCCl)SCCCS1", "inhibition": "inactive: -11%"},
      {"smiles": "O=C(NCC1(N2CCCCC2)CCCCC1)c1ccc(F)cc1", "inhibition": "inactive: -13.7%"},
      {"smiles": "CCOC(=O)N1CCC(Nc2ccc(F)cc2)CC1", "inhibition": "inactive: 3.47%"}
    ]}
  ]
}
